Measured values from patent US20260276655A1, “BIOMARKERS OF AMYOTROPHIC LATERAL SCLEROSIS AND USES THEREOF” (The Methodist Hospital, priority 2023, published 2026).

Test system: subjects with ALS
Assay: Phase I Treg/IL-2 trial: serum analytes by ELISA and Appel ALS clinical score
Assay type: in vivo, human
From the text: For the phase I Treg/IL-2 trial, three subjects with ALS were selected based on their differing sites of disease onset and progression rates. Specifically, three patients with arm, bulbar, and leg-onset ALS, respectively, were enrolled in the trial
Subjects with ALS underwent Treg therapy. In brief, Treg therapy included taking T-regulatory cells (Tregs) from the patient (leukapheresis), increasing the cell number in a lab, and returning the Tregs in monthly intravenous (IV) infusions back to the same patient (dose of 1×10^6 cells/kg), plus three times per week subcutaneous interleukin-2 injections (2×10^5 IU/m^2/injection).
For the phase I Treg/IL-2 trial, patients underwent a total of 8 infusions of expanded autologous Tregs with concomitant subcutaneous IL-2 injections. Four Treg infusions were administered every 2 weeks at an early stage of the disease, followed by 4 Treg infusions administered every 4 weeks at a later stage. IL-2 was administered subcutaneously 3 times weekly beginning the day after the first Treg infusion and continued throughout the study period.
For both trials, patients were closely monitored for adverse effects and changes in disease progression rates. To monitor the responsiveness of the ALS patients to treatment, ALSFRS-R and/or AALS scoring and pulmonary function tests (e.g., FVC) were performed immediately before each Treg infusion, every 2 weeks during each round of infusions, and monthly after each round.
Serum was obtained from groups of people including those diagnosed with amyotrophic lateral sclerosis (ALS) and healthy volunteers. Serum was collected from blood drawn from a patient according to standard procedures in the art. The resulting serum was subjected to an enzyme-linked immunosorbent assay (ELISA) to assess biomarker (e.g., analyte) concentration in serum of the patient. ELISA was performed according to manufacturer's instructions.
Immune-based biomarker concentrations were assessed in serum samples collected from ALS patients and healthy control (HC) subjects according to the methods described in Section 7.2. Concentrations of the biomarkers were determined before and throughout the duration of ALS therapy which was administered according to the methods described in Section 7.1. Specifically, the concentration of inflammatory analytes (CCL2, IL- 18), oxidative stress (OS) analytes (4-HNE and MDA), and analytes associated with neuronal structural integrity (Nf-L and pNf-H) were assessed in serum collected from the patients and HC subjects. As understood herein, an analyte is a substance or chemical constituent that is determined in an analytical procedure. Analytes detected by ELISA, as used in the exemplary methods herein, are typically proteins, for example, cytokines, chemokines, immunoglobulins, hormones, and the like. To analyze the detection and quantification of the target analytes of the present example, comparisons were performed using ANOVA for more than 2 groups or Student's t-test for two groups. ANOVA was presented with the degrees of freedom, F value, and p value and Student's t-test was presented with a p value. Correlation was done using Spearman Rank Order in SigmaStat software and presented with a rho and p values.

[1] = end of study, Treg infusions ceased and only IL-2 continued
[2] = six-month Treg washout period, subjects receiving only IL-2

Substance: interleukin-2 [IL-2]
- CCL2 serum levels [1]: gradually increased again
- IL-18 serum levels [1]: gradually increased again
- Appel ALS clinical score (AALS) [2]: deterioration
- CCL2 serum levels [2]: rose toward the baseline level
- IL-18 serum levels [2]: rose toward the baseline level
- disease progression (subject three, Treg therapy stopped and only IL-2 administered): progressed again
